Results published in patent US20020137154A1, “Methods for improving cell growth and alcohol production during fermentation” (priority 2000, published 2002).

Experiments:
Type in all cases: cell-based
[1] = system: recombinant Escherichia coli KO11; experiment: Batch fermentation of E. coli KO11 in 1% CSL medium and xylose with nutrient additives: ethanol production and cell growth; conditions: for activity at 2000 µg/mL: Escherichia coli
Method: (§1) Two types of media were tested: 1% CSL and Luria broth (LB). Each contained 97 g of either xylose or glucose per liter. Luria Broth consists of, per liter: 10 g Difco® Tryptone, 5 g Difco® Yeast Extract and 5 g NaCl. The 1% CSL medium consists of Corn Steep Liquor (1% w/v) plus mineral salts (mineral salts per liter: 1 g of KH2PO4. 0.5 g of K2HPO4, 3.1 g of (NH4)2SO4, 0.4 g of MgCl2·6H2), and 20 mg FeCl3·6H2O).
(§2) Luria Broth was prepared by autoclaving a 2× nutrient stock containing, per liter: 20 g Difco® Tryptone, 10 g Difo® Yeast Extract, and 10 g NaCl. Sugars (xylose or glucose) were autoclaved separately. A 1% CSL medium was prepared as follows: Commercial Corn Steep Liquor (CSL; 50% dry weight/50% water) was diluted with tap water to make a 20X stock containing 100 g dry weight of Corn Steep Liquor/L and was adjusted to pH 7.2 with NaOH (50%). After sterilization by autoclaving, the 20X CSL stock was clarified by centrifugation at 5000×g for 10 minutes. Magnesium was added as a 100× stock solution (40 g/L MgCl2·6H2O). Iron was added as a 1000× stock solution made by dissolving 20 g FeCl3·6H2O in 175 mL of HCl and adjusting to 1 L with sterile water. Nitrogen, sulfur and phosphorus were added using a 20× stock solution containing the following (per liter): 20 g of KH2PO4, 10 g of K2HPO4 and 62 g of (NH4)2SO4. Stock solutions containing minerals were sterilized separately by autoclaving. Final media was prepared by adding 750 mL of water to 1 L bottle containing 100 g of xylose or glucose.
Inocula were grown in same media used for fermentation and were prepared as follows. Three colonies from a fresh plate were used to inoculate seed cultures: 250-mL flask containing 100 mL medium. These cultures were grown with agitation (120 rpm) for 12-16 hours at 35° C. to a final OD550nm of approximately 2.0-2.5. Cells were harvested by centrifugation at 5000×g for 5 minutes, and resuspended in fresh media to an OD550nm of 0.1. The resulting suspension was distributed into 500-mL beakers containing 345 ml each of fermentation medium. Acetaldehyde was added as indicated. Batch fermentations (35° C., 100 rpm) were maintained at pH 6.5 by the automatic addition of 2N KOH. Cell mass, ethanol, and base addition (2N KOH) were recorded during 96 hours of incubation. […]
(§3) Additives (e.g., as listed in Table 1) were dissolved in 5 mL di-H2O. Solutions with pH lower than 5 were neutralized to pH 6.5 with 2N KOH. Nutritional supplements were then filter-sterilized (0.45 μm filter disk) directly into the fermentation vessel containing the culture. The final concentration of all additives in the culture medium was 2 g/L unless otherwise indicated.
(§4) Cell mass was estimated by measuring OD550nm using Baush & Lomb® Spectronic 70 spectrophotometer. […] Ethanol was measured by gas chromatography using a Varian® 3400 CX gas chromatograph with 1-propanol as an internal standard.
(§5) Tables 1, 3, and 5 show time to completion of fermentation, ethanol production, and volumetric productivity of the fermentation for all concentrations of the compound and the control. Maximum ethanol production is shown in grams/liter (g/L). The ethanol yield is shown in grams of ethanol/grams of added sugar. Maximum volumetric productivity is shown in grams ethanol/(liter)(hour). The average productivity is calculated form the start of fermentation to the completion of fermentation is grams ethanol/(liter)hour).
Tables 2, 4, and 6 show the initial growth of the cells (OD taken after the first 24 hours of fermentation) and the maximum cell density (the time which culture reaches the maximum OD value). […]

[2] = system: recombinant Escherichia coli KO11; experiment: Batch fermentation of E. coli KO11 in 1% CSL medium and glucose with nutrient additives: ethanol production and cell growth; conditions: for activity at 2000 µg/mL: Escherichia coli
Method: as §1, §2
(§6) Inocula were grown in same media used for fermentation and were prepared as follows. Three colonies from a fresh plate were used to inoculate seed cultures: 250-mL flask containing 100 mL medium. These cultures were grown with agitation (120 rpm) for 12-16 hours at 35° C. to a final OD550nm of approximately 2.0-2.5. Cells were harvested by centrifugation at 5000×g for 5 minutes, and resuspended in fresh media to an OD550nm of 0.1. The resulting suspension was distributed into 500-mL beakers containing 345 ml each of fermentation medium. Acetaldehyde was added as indicated. Batch fermentations (35° C., 100 rpm) were maintained at pH 6.5 by the automatic addition of 2N KOH. Cell mass, ethanol, and base addition (2N KOH) were recorded during 96 hours of incubation.
(§7) Equivalent amounts of distilled water were added instead of the acetaldehyde in control experiments.
as §3, §4, §5
(§8) Tables 2, 4, and 6 show the initial growth of the cells (OD taken after the first 24 hours of fermentation) and the maximum cell density (the time which culture reaches the maximum OD value).
(§9) Acetaldehyde was added to the fermentation medium at five different concentrations and time points. […] Where two additions are indicated, the first volume was added at the start of fermentation and the second was added after 8 hours of fermentation.

[3] = system: recombinant Escherichia coli KO11; experiment: Batch fermentation of E. coli KO11 in Luria broth and xylose with nutrient additives: ethanol production and cell growth; conditions: LB+xylose; additive 2 g/L unless indicated
Method: as §1, §2, §6, §7, §3, §4, §5, §8, §9

[4] = 1% CSL+xylose, additive 2 g/L unless indicated
[5] = 24 h, read-out: Initial Growth (OD @ 24 h) % Control
[6] = 1% CSL+glucose, additive 2 g/L unless indicated

## O=C(O)CC(C(=O)O)C(O)C(=O)O (stereo not drawn) [Isocitrate]
[1]; [4]
  Initial Growth (OD @ 24 h) OD: 2.17 OD
[1]; [5]
  activity at 2000 µg/mL: 106%
[1]; read-out: Ethanol Production Maximum % Control
  activity at 2000 µg/mL: 110%
[1]; read-out: Volumetric Productivity Average % Control
  activity at 2000 µg/mL: 110%
[2]; [6]
  Initial Growth (OD @ 24 h) OD: 2.78 OD
  Maximum Cell Density OD: 2.62 OD
[2]; [5]
  activity at 2000 µg/mL: 104%
[2]; read-out: Maximum Cell Density % Control
  activity at 2000 µg/mL: 97.6%
[2]; read-out: Volumetric Productivity Maximum % Control
  activity at 2000 µg/mL: 114%

## O=C(O)CCC(=O)C(=O)O [a-KG, α-ketoglutarate]
[1]; [4]
  Maximum Cell Density % Control: 224.85%
  Maximum Cell Density OD: 5.66 OD
  Maximum Cell Density Time: 72 h
  Volumetric Productivity Average: 0.588 grams ethanol/(liter)(hour)
  Volumetric Productivity Average % Control: 187.59%
  Volumetric Productivity Maximum: 0.866 grams ethanol/(liter)(hour)
[2]; [6]
  Maximum Cell Density % Control: 128.90%
  Maximum Cell Density OD: 3.46 OD
  Maximum Cell Density Time: 72 h
  Volumetric Productivity Average: 0.560 grams ethanol/(liter)(hour)
  Volumetric Productivity Average % Control: 145.37%
  Volumetric Productivity Maximum: 0.657 grams ethanol/(liter)(hour)
  Volumetric Productivity Maximum % Control: 127.95%
[3]
  Ethanol Production Maximum % Control: 98.60%
  Maximum Cell Density % Control: 95.90%
  Maximum Cell Density OD: 10.59 OD
  Maximum Cell Density Time: 48 h
  Volumetric Productivity Average: 0.885 grams ethanol/(liter)(hour)
  Volumetric Productivity Average % Control: 98.60%
  Volumetric Productivity Maximum: 1.348 grams ethanol/(liter)(hour)
  Volumetric Productivity Maximum % Control: 117.02%
